Experimental data as given in patent US4430435A (priority 1980, dated 1984).

Chains of the proteins cited; added tags and fusions are not shown.
UniProt P20288, whole entry, looked up: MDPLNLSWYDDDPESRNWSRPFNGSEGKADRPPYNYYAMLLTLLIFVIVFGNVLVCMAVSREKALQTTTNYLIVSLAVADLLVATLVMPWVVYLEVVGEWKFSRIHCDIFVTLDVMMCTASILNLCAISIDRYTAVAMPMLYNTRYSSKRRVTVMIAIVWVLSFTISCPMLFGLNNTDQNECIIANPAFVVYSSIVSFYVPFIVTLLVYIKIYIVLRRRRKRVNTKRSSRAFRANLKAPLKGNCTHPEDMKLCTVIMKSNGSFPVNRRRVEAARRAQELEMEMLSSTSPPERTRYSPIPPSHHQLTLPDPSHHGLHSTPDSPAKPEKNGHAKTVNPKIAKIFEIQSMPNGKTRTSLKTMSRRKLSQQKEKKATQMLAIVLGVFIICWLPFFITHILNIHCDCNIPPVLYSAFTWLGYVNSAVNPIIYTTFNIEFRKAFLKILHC

Experiments:
calf caudate = calf caudate (Bos taurus, UniProt P20288)
[1] = last line of Table 4, μg/Tube TBP not given

Question: With `CCCCOP(=O)(OCCCC)OCCCC` as the compound, how does the “125I-HYP Bound (CPM) in Buffer” value (β-Adrenergic Receptors; 0.10 μg/ml TBP) read?
Answer: 8002 CPM

Question: What about the “125I-HYP Bound (CPM) in Serum” value (β-Adrenergic Receptors; 0.10 μg/ml TBP) of the same compound?
Answer: 2067 CPM

Question: And the “% Change in Buffer” value (β-Adrenergic Receptors; 0.10 μg/ml TBP)?
Answer: -6%

Question: And the “% Change in Serum” value (β-Adrenergic Receptors; 0.10 μg/ml TBP)?
Answer: +3%

Question: What about the “125I-HYP Bound (CPM) in Buffer” value (β-Adrenergic Receptors; 0.20 μg/ml TBP) of the same compound?
Answer: 7987 CPM

Question: And the “125I-HYP Bound (CPM) in Serum” value (β-Adrenergic Receptors; 0.20 μg/ml TBP)?
Answer: 2537 CPM

Question: What about the “% Change in Buffer” value (β-Adrenergic Receptors; 0.20 μg/ml TBP) of the same compound?
Answer: -6%

Question: And the “% Change in Serum” value (β-Adrenergic Receptors; 0.20 μg/ml TBP)?
Answer: +26%

Question: And the “125I-HYP Bound (CPM) in Buffer” value (β-Adrenergic Receptors; 0.50 μg/ml TBP)?
Answer: 8066 CPM

Question: And the “125I-HYP Bound (CPM) in Serum” value (β-Adrenergic Receptors; 0.50 μg/ml TBP)?
Answer: 5853 CPM

Question: And the “% Change in Buffer” value (β-Adrenergic Receptors; 0.50 μg/ml TBP)?
Answer: -6%

Question: And the “% Change in Serum” value (β-Adrenergic Receptors; 0.50 μg/ml TBP)?
Answer: +191%

Question: What about the “125I-HYP Bound (CPM) in Buffer” value (β-Adrenergic Receptors; 1.0 μg/ml TBP) of the same compound?
Answer: 8051 CPM

Question: And the “125I-HYP Bound (CPM) in Serum” value (β-Adrenergic Receptors; 1.0 μg/ml TBP)?
Answer: 5791 CPM

Question: What about the “% Change in Buffer” value (β-Adrenergic Receptors; 1.0 μg/ml TBP) of the same compound?
Answer: -6%

Question: And the “% Change in Serum” value (β-Adrenergic Receptors; 1.0 μg/ml TBP)?
Answer: +188%

Question: And the “125I-HYP Bound (CPM) in Buffer” value (β-Adrenergic Receptors; 5.0 μg/ml TBP)?
Answer: 8091 CPM

Question: And the “125I-HYP Bound (CPM) in Serum” value (β-Adrenergic Receptors; 5.0 μg/ml TBP)?
Answer: 5871 CPM

Question: And the “% Change in Buffer” value (β-Adrenergic Receptors; 5.0 μg/ml TBP)?
Answer: -5%

Question: And the “% Change in Serum” value (β-Adrenergic Receptors; 5.0 μg/ml TBP)?
Answer: +192%

Question: And the “125I-HYP Bound (CPM) in Buffer” value (β-Adrenergic Receptors; 10.0 μg/ml TBP)?
Answer: 7899 CPM

Question: And the “125I-HYP Bound (CPM) in Serum” value (β-Adrenergic Receptors; 10.0 μg/ml TBP)?
Answer: 5863 CPM

Question: And the “% Change in Buffer” value (β-Adrenergic Receptors; 10.0 μg/ml TBP)?
Answer: -6%

Question: What about the “% Change in Serum” value (β-Adrenergic Receptors; 10.0 μg/ml TBP) of the same compound?
Answer: +192%

Question: And the “% 3H-Spiperone Bound in Buffer” value (calf caudate; 1.56 μg/Tube TBP)?
Answer: 37.3%

Question: What about the “% 3H-Spiperone Bound in Serum” value (calf caudate; 1.56 μg/Tube TBP) of the same compound?
Answer: 29.5%

Question: And the “% Change in Buffer” value (calf caudate; 1.56 μg/Tube TBP)?
Answer: +1%

Question: What about the “% Change in Serum” value (calf caudate; 1.56 μg/Tube TBP) of the same compound?
Answer: +24%

Question: What about the “% 3H-Spiperone Bound in Buffer” value (calf caudate; 3.13 μg/Tube TBP) of the same compound?
Answer: 36.4%

Question: And the “% 3H-Spiperone Bound in Serum” value (calf caudate; 3.13 μg/Tube TBP)?
Answer: 30.6%

Question: What about the “% Change in Buffer” value (calf caudate; 3.13 μg/Tube TBP) of the same compound?
Answer: -2%

Question: And the “% Change in Serum” value (calf caudate; 3.13 μg/Tube TBP)?
Answer: +29%

Question: And the “% 3H-Spiperone Bound in Buffer” value (calf caudate; 6.25 μg/Tube TBP)?
Answer: 36.0%

Question: What about the “% 3H-Spiperone Bound in Serum” value (calf caudate; 6.25 μg/Tube TBP) of the same compound?
Answer: 31.6%

Question: And the “% Change in Buffer” value (calf caudate; 6.25 μg/Tube TBP)?
Answer: -3%

Question: What about the “% Change in Serum” value (calf caudate; 6.25 μg/Tube TBP) of the same compound?
Answer: +33%

Question: What about the “% 3H-Spiperone Bound in Buffer” value (calf caudate; 12.5 μg/Tube TBP) of the same compound?
Answer: 35.1%

Question: What about the “% 3H-Spiperone Bound in Serum” value (calf caudate; 12.5 μg/Tube TBP) of the same compound?
Answer: 31.6%

Question: And the “% Change in Buffer” value (calf caudate; 12.5 μg/Tube TBP)?
Answer: -5%

Question: What about the “% Change in Serum” value (calf caudate; 12.5 μg/Tube TBP) of the same compound?
Answer: +33%

Question: What about the “% 3H-Spiperone Bound in Buffer” value (calf caudate; 25.0 μg/Tube TBP) of the same compound?
Answer: 29.3%

Question: What about the “% 3H-Spiperone Bound in Serum” value (calf caudate; 25.0 μg/Tube TBP) of the same compound?
Answer: 31.4%

Question: And the “% Change in Buffer” value (calf caudate; 25.0 μg/Tube TBP)?
Answer: -20%

Question: What about the “% Change in Serum” value (calf caudate; 25.0 μg/Tube TBP) of the same compound?
Answer: +32%

Question: What about the “% 3H-Spiperone Bound in Buffer” value (calf caudate; 100.0 μg/Tube TBP) of the same compound?
Answer: 23.7%

Question: What about the “% 3H-Spiperone Bound in Serum” value (calf caudate; 100.0 μg/Tube TBP) of the same compound?
Answer: 31.5%

Question: What about the “% Change in Buffer” value (calf caudate; 100.0 μg/Tube TBP) of the same compound?
Answer: -36%

Question: What about the “% Change in Serum” value (calf caudate; 100.0 μg/Tube TBP) of the same compound?
Answer: +33%

Question: And the “% 3H-Spiperone Bound in Buffer” value (calf caudate; [1])?
Answer: 8.8%

Question: What about the “% 3H-Spiperone Bound in Serum” value (calf caudate; [1]) of the same compound?
Answer: 28.8%

Question: What about the “% Change in Buffer” value (calf caudate; [1]) of the same compound?
Answer: -76%

Question: What about the “% Change in Serum” value (calf caudate; [1]) of the same compound?
Answer: +22%

Read-outs that look alike come from different tables or passages of the source.
